## Antibody variant affinities, Ab-95 light chain, assay 2

Target peptide (SARS-CoV-2 spike, HR2 region): PDVDLGDISGINAS

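The parent was found by panning a naive human phage display library on the peptide. Variants in AAYL52 differ from the parent at up to three CDR positions; double and triple changes were sampled at random. The scFvs were displayed on barcoded MATa yeast, the peptide on MATalpha yeast. Mating (16 h, 30 °C) was followed by selection of diploids and sequencing of their barcodes. Each replicate has its own calibration line, from reference interactions of the BCL2 family. Each pool was mated in three replicate cultures.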

Ab-95 is the parent antibody, in scFv form: VH, then the linker GGGGSGGGGSGGGGS, then VL. The heavy chain is unchanged in all variants.
VH: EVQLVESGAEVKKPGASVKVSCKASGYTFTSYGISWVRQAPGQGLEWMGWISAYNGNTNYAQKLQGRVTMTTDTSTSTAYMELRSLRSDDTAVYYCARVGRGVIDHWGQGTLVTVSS
VL: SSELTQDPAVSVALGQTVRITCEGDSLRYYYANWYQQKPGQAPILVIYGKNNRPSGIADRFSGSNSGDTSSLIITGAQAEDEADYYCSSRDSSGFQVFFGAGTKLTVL

Each variant is given by its three light chain CDRs, as the data file delimits them; those of the parent are EGDSLRYYYAN, GKNNRPS, SSRDSSGFQVF.
Every variant below is changed at N51 of the VL (sequential numbering).
Values are apparent Kd, the geometric mean of the replicates that gave a signal; lower means stronger binding.
Where no diploid with the target was found in any replicate, the entry reads "no signal": below detection, most likely a poor binder, though not proof of it.

| CDR-L1 | CDR-L2 | CDR-L3 | Kd | replicates with signal |
|---|---|---|---|---|
| EGDSLRYYYAM | GKWNRPS | SSRDSSGRQVF | 4.7 µM | 1 of 3 |
| EGDSLAYYYAN | GKKNRPS | PSRDSSGFQVF | no signal | 0 of 3 |
| EGDSLRYYYAN | GKHNRPS | SSRDSSGFENF | 320 nM | 3 of 3 |
| EGDSLRYYYAN | GKENRPS | SSRDSHQFQVF | 3.5 µM | 3 of 3 |
| EGDSLRYWYAN | GKINRPS | SSRDSYGFQVF | 64 µM | 1 of 3 |
| EGDSLMYYYAN | GKLNRPS | SSRDSPGFQVF | 13 µM | 2 of 3 |
| EGDSLRYYYEN | GKVNRPS | SSRDSSNFQVF | 6.8 µM | 1 of 3 |
| EGDSLRYYYAR | GKGNRPS | SSRDSSGFQVF | 290 nM | 3 of 3 |
| EGDSLRYCYAN | GKQNRPS | SSRDSSGFQVF | 920 nM | 3 of 3 |
| EGDSLRYYYAN | GKYNRPS | SSRDSSGIQVF | 57 µM | 2 of 3 |
| EGDSLRYYYAN | GECNRPS | SSRDSSGFQVS | no signal | 0 of 3 |
| EIDSLRYYMAN | GKANRPS | SSRDSSGFQVF | 950 nM | 3 of 3 |
| EMDSLRYYYAN | GKANRPS | SSRDSSGFQLF | no signal | 0 of 3 |
| EGDSLRYYYAF | GKMNVPS | SSRDSSGFQVF | 11 µM | 1 of 3 |
| EGDSLRYYYAN | GKYNRPS | SDRCSSGFQVF | 31 µM | 2 of 3 |
| EGDSLRYYYWN | GKTNRPS | SSRDSSGFQVA | 7.3 µM | 1 of 3 |
| EGDSTRYYYAN | GKDKRPS | SSRDSSGFQVF | 9.4 µM | 3 of 3 |
| EFDSLRYKYAN | GKINRPS | SSRDSSGFQVF | 4.0 µM | 1 of 3 |
| EGDSLRYYEAN | GKSNRPS | SSRDSSGFQVE | 130 nM | 3 of 3 |
| EGDSLRYYYAN | GKHPRPS | SSRDSSGFTVF | 18 µM | 1 of 3 |
| EGDSLRYYYSN | GKCNRPS | SSRDSSGMQVF | 15 µM | 3 of 3 |
| EGDSLRYYYAN | GKPNRPS | SSRDSSGFQVF | 1.0 µM | 1 of 3 |
| EGDSLRYYYAN | GKDNNPV | SSRDSSGFQVF | 840 nM | 1 of 3 |
| EGHSLRYYYAQ | GKHNRPS | SSRDSSGFQVF | 7.0 µM | 2 of 3 |
| EGDSPRYYYAN | GKCNRPS | SSRDSSGFMVF | 16 µM | 1 of 3 |
| ELDSLRYYYAN | GKDNRPS | SSRRSSGFQVF | no signal | 0 of 3 |
| EGDSLRYYYAN | GKKNRPS | SSYDSSGFQRF | 3.8 µM | 3 of 3 |
| EGDSLRYYYAN | GKSNRPS | WSRDSSGFQVN | 15 µM | 1 of 3 |
| PGDQLRYYYAN | GKTNRPS | SSRDSSGFQVF | 18 µM | 3 of 3 |
| EGDSLRKYYAN | GKFNRPS | SSRDSSGFQVF | 2.9 µM | 3 of 3 |
| EGDSLRYYYAN | GKVMRPH | SSRDSSGFQVF | 5.6 µM | 2 of 3 |
| EGDSLRYYHAN | DKFNRPS | SSRDSSGFQVF | 560 nM | 3 of 3 |
| EGPFLRYYYAN | GKFNRPS | SSRDSSGFQVF | 21 µM | 3 of 3 |
| EVDSLRYYYAN | SKDNRPS | SSRDSSGFQVF | 4.4 µM | 2 of 3 |
| EGDSLRYYLAN | GKTNRPI | SSRDSSGFQVF | 1.6 µM | 2 of 3 |
| EGDSLRYYYAN | GGVNRPS | SSRTSSGFQVF | 1.1 µM | 3 of 3 |
| DGDSMRYYYAN | GKTNRPS | SSRDSSGFQVF | 4.3 µM | 3 of 3 |
| EGDSLRYYYAN | GKYNRPS | SSRISSGLQVF | no signal | 0 of 3 |
| EGDCLRYYYAN | GKWNRPS | SSRDSNGFQVF | 97 µM | 1 of 3 |
| EGDSARYYYAN | GKRNRPS | SSRDYSGFQVF | 14 µM | 2 of 3 |
| EGDSLRYYYAN | GKQVRPS | LSRDSSGFQVF | 1.0 µM | 1 of 3 |
| EGDSLRYYYAN | GKINRPS | FSRYSSGFQVF | 47 µM | 1 of 3 |
| EGDSLRYFYAN | GKWNRPS | SSRDSSGFQVF | 17 µM | 2 of 3 |
| EGDSLRYFYAN | CKMNRPS | SSRDSSGFQVF | 420 nM | 1 of 3 |
| EGDSLRYYYAN | GKINRPS | SSRDSSGFMVF | 5.4 µM | 2 of 3 |
| EGDSLRYYYAN | GKVNRPS | SSWGSSGFQVF | 2.8 µM | 2 of 3 |
| EGDSLRYYYAN | KKWNRPS | SSRDDSGFQVF | no signal | 0 of 3 |
| EGDILRYYYAN | GKGNRPS | SSRDISGFQVF | 14 µM | 3 of 3 |
| EGDSLRYYYAN | GKGNRPS | SHRDSSGFQVF | 140 nM | 3 of 3 |
| EGDSLRYYGAN | GKTNRPS | SDRDSSGFQVF | 400 nM | 3 of 3 |
| EGESLRTYYAN | GKVNRPS | SSRDSSGFQVF | 13 µM | 3 of 3 |
| EGDSLRYYYAN | GGHNRPS | SSRDSSGFQVI | 200 nM | 3 of 3 |
| EGYSLRYYYAN | GKDNRPS | SSRNSSGFQVF | 1.9 µM | 2 of 3 |
| EGDSLRYYYAN | GKTNRVS | ISRDSSGFQVF | 4.0 µM | 3 of 3 |
| EGDSLRYYYAN | GKKNRPS | SSRSSSGFQVY | 3.0 µM | 2 of 3 |
| EWDSLRYYCAN | GKCNRPS | SSRDSSGFQVF | 6.7 µM | 2 of 3 |
| EGDSCRYYYAN | GKWNRPS | SSRDSSGFQVF | 110 µM | 2 of 3 |
| EGDSLRYYYAN | GKHNRPS | SSNDSSGFQVF | 88 µM | 2 of 3 |

Excerpt, the first 3 entries:

CDR-L1,CDR-L2,CDR-L3,Kd,replicates with signal
EGDSLRYYYAM,GKWNRPS,SSRDSSGRQVF,4.7 µM,1 of 3
EGDSLAYYYAN,GKKNRPS,PSRDSSGFQVF,no signal,0 of 3
EGDSLRYYYAN,GKHNRPS,SSRDSSGFENF,320 nM,3 of 3

As a blank, each scFv also met three strains without target: over library AAYL52, 28% of these pairings were detected, typically at 8.2 µM and seldom below 800 nM.
Parent in this assay: reference entry 200 nM, copy in this library 180 nM.

Source: Engelhart et al. 2022 (doi:10.1038/s41597-022-01779-4), MIT Lincoln Laboratory and A-Alpha Bio; data file from the FLAb repository.